# Target: Human TNFR1 (soluble) recombinant protein (human) (UniProt P19438)
# By UniProt entry, the sequences of proteins in these tests, tags left out. Residues count along the entry.
# UniProt P19438, 42-181: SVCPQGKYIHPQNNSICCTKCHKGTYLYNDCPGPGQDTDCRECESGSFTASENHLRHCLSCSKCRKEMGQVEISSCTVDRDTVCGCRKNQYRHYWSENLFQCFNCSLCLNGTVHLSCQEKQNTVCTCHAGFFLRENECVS
# Assay: MST; labelled TNFR1 (RED-NHS 2nd Generation) at 1 nM, rhTNF-α titrated, PBS, Monolith NT.115 Pico
substance,measurement,value
recombinant human tumor necrosis factor alpha (rhTNF-α) (ligand),Kd,4.94 nM

# Source: PMC12024540, “Peptide-Based Regulation of TNF-α-Mediated Cytotoxicity” (Biomolecules, 2025)
